Test results reported in patent US7572798B2, “Combi-molecules having signal transduction inhibitory properties and DNA damaging properties” (McGill University, priority 2001, dated 2009).

Columns and labels:
EGFR [1] = biological target: T1, EGFR (Homo sapiens, UniProt P00533); experiment: EGF-induced EGFR autophosphorylation in A431 cells (Western blot)
EGFR [2] = biological target: T1, EGFR; experiment: EGFR TK ELISA with PGT substrate (competitive binding at the ATP site); type: biochemical; design: purchased BIOMOL (Plymouth Meeting); also a gift from Pfizer Inc
Experimental: The ability of the combi-molecules to block EGFR TK activity was determined by an ELISA assay using poly(L-glutamic acid-L-tyrosine, 4:1) PGT as a substrate and commercially available EGFR.
Nunc MaxiSorp 96-well plates were incubated overnight at 37° C. with 100μL per well of 0.25 mg/mL PGT in PBS. Excess PGT was removed and the plates were washed 3 times with Tween 20 (0.1%) in PBS. […] The compound was added and phosphorylation initiated by the addition of ATP (20 μM). After 8 min at room temperature with constant shaking, the reaction was terminated by the aspiration of the reaction mixture and by rinsing the plate 4 times with wash buffer (Tween 20 (0.1%) in PBS). […] Antibody was removed by aspiration, and the plates washed 4 times with wash buffer. The signals were developed by the addition of 50 μL per well of TMB peroxidase substrate (Kierkegaard and Perry Laboratories, Gaithersberg, Md.).
This assay is similar to the one previously described. Nunc MaxiSorp 96-well plates were incubated overnight at 37° C. with 100 μl/well of 25 ng/ml PGT in PBS. Excess PGT was removed and the plates were washed three times with wash buffer (Tween 20 (0.1%) in PBS). […] The compound was added and phosphorylation initiated by the addition of ATP (20 μM). […]

Q: Cc1cccc(Nc2ncnc3ccc(N(C)C(=O)N(CCCl)N=O)cc23)c1 [FD137, N-(2-Chloroethyl)-N′-methyl-N′-(4-m-tolylaminoquinazolin-6-yl)-N-nitrosourea] was tested. Which “effect on EGFR autophosphorylation” value (EGFR [1]) did it give?
A: Its value is “blocked EGFR autophosphorylation in A431 cells in a dose dependent manner”.

Q: What about the IC50 (EGFR [2]) of the same compound?
A: The IC50 was ~1 µM.
